Test results as given in paper PMC10783014, “Structure-based virtual screening and in vitro validation of inhibitors of cyclic dinucleotide phosphodiesterases ENPP1 and CdnP” (Microbiology Spectrum, 2023).
Several values for one entry are separate records, joined by “and”; a condition that tells them apart may be missing. Equal entries are not always repeated.

Chains of the proteins cited; added tags and fusions are not shown.
UniProt P22413, whole entry: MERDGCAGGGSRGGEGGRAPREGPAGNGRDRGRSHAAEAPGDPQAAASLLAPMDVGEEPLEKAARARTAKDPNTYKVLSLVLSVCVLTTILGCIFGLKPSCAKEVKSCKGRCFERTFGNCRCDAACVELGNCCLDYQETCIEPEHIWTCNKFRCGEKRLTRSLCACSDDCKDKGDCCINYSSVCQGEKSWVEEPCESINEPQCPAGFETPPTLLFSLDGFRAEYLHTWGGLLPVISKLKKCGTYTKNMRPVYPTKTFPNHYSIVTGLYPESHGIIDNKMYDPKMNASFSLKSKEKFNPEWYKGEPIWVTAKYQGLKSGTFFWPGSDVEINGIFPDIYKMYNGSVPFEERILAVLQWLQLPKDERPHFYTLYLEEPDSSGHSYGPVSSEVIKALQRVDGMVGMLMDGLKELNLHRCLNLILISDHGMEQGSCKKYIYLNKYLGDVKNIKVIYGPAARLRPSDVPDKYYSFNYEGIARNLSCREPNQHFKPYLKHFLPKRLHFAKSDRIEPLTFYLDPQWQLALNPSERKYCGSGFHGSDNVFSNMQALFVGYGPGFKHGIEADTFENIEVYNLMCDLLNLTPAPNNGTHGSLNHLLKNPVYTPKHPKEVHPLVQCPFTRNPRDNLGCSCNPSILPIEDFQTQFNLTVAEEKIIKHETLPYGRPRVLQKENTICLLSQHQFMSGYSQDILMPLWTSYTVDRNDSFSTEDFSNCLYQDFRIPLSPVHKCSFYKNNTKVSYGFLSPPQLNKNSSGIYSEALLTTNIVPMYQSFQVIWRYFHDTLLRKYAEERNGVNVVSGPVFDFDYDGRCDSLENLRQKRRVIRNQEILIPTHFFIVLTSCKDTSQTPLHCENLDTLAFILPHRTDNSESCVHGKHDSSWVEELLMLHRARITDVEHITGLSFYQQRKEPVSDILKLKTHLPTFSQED

Legend:
[1] = test system: Vero cells; assay: Vero cell cytotoxicity, resazurin dye reduction assay; conditions: read-out: IC50 Vero cells; Vero cell growth inhibition, 48 h then resazurin overnight
[2] = biological target: human ENPP1 (Homo sapiens, UniProt P22413); assay: Luminescence-based AMP-Glo ENPP1 enzyme inhibition assay with 2′,3′-cGAMP substrate; conditions: for IC50 ENPP1: 2′,3′-cGAMP 300 µM, ENPP1 5 µM; for IC50: read-out: IC50 ENPP1, 2′,3′-cGAMP 300 µM, ENPP1 5 µM

Compound | IC50 [1] [µM] | IC50 ENPP1 [2] [µg/mL] | IC50 [2]
c1ccc(CN2CN(Cc3ccccc3)CN(Cc3ccccc3)C2)cc1 | > 279 | > 100 | > 279 µM
C[N+]1(CCC[N+]2(C)CC3C4CCCCC4=C4CCCCC4C3C2)CCOCC1 (stereo not drawn) | 156 | 10 | 15 µM and 15.6 µM
